Experimental data as given in patent US9296725B2, “Heterocyclyl pyrimidine analogues as TYK2 inhibitors” (Cellzome Limited, priority 2012, dated 2016).

Amino acid sequences for entries named in this document (tags omitted).
UniProt P29597, whole entry: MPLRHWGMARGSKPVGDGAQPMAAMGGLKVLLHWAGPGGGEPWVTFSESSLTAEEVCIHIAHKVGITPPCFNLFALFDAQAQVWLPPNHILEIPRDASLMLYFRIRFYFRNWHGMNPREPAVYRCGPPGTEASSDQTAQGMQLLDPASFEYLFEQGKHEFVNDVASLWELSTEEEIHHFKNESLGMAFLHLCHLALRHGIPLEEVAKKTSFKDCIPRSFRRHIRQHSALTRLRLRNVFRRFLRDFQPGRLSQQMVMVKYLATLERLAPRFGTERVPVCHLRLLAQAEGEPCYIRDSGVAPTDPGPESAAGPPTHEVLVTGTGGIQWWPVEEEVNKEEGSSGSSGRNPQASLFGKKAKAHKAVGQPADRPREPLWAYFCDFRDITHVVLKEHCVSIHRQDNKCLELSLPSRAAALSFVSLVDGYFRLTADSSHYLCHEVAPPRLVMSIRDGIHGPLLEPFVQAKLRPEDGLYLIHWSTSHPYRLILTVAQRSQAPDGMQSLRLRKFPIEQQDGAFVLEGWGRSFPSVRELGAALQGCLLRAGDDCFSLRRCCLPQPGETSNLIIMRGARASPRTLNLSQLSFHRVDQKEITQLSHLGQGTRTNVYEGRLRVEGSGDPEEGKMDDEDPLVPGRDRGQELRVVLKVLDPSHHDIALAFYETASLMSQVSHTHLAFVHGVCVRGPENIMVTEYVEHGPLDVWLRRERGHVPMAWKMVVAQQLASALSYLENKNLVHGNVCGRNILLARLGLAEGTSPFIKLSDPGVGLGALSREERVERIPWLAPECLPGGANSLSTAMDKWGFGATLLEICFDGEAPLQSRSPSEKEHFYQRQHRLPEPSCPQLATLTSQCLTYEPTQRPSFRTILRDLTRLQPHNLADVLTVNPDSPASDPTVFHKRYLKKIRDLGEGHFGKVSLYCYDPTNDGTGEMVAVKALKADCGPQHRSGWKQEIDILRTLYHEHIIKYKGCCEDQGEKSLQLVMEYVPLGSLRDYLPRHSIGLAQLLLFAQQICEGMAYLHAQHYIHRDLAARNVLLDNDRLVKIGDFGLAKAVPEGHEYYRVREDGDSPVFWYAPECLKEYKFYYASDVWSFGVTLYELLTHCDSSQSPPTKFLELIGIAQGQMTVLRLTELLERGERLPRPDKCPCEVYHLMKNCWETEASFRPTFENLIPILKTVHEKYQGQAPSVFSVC
UniProt O60674, whole entry: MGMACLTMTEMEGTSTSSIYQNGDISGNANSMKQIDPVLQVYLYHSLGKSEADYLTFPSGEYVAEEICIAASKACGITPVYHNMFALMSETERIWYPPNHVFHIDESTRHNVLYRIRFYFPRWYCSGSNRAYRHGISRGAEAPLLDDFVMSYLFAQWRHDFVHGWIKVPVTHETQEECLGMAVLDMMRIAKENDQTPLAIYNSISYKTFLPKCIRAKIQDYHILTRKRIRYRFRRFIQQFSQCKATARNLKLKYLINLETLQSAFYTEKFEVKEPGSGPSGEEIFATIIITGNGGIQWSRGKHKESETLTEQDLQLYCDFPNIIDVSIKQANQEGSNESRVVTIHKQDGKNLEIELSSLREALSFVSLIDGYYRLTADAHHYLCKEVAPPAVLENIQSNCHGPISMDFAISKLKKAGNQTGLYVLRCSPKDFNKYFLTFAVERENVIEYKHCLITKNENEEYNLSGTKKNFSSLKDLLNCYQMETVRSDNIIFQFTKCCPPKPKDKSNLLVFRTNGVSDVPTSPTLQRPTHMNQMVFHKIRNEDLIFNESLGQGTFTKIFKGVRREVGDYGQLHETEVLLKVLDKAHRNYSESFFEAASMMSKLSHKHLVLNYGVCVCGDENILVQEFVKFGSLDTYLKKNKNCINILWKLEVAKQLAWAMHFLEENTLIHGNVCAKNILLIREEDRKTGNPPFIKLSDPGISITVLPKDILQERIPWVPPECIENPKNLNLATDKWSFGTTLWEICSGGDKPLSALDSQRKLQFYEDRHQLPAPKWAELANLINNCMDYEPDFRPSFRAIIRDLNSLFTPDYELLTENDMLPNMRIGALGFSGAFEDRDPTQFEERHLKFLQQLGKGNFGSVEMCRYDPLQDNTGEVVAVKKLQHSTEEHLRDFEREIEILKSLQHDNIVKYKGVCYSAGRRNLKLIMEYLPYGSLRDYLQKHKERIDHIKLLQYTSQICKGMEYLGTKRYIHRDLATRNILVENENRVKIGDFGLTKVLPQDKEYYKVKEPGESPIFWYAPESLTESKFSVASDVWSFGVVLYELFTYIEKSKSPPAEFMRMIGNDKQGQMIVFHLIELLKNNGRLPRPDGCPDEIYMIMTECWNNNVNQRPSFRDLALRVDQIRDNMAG

How the values were obtained:
TYK2 = TYK2 (Homo sapiens, UniProt P29597); experiment: Kinobeads assay, TYK2 (competition binding in mixed Molt4/Ramos cell lysate, dot blot detection); details: read-out: TYK2 Band (Kinobeads assay potency, IC50)
Experimental: (§1) The compounds of the present invention as described in the previous examples were tested in a Kinobeads™ assay as described for ZAP-70 (WO-A 2007/137867). Briefly, test compounds (at various concentrations) and the affinity matrix with the immobilized aminopyrido-pyrimidine ligand 24 were added to cell lysate aliquots and allowed to bind to the proteins in 10 the lysate sample. After the incubation time the beads with captured proteins were separated from the lysate. Bound proteins were then eluted and the presence of TYK2 and JAK2 was detected and quantified using specific antibodies in a dot blot procedure and the Odyssey infrared detection system. Dose response curves for individual kinases were generated and IC50 values calculated. Kinobeads™ assays have been previously described (WO-A 2007/137867; WO-A 2006/134056). […]
(§2) Molt4 cells (ATCC catalogue number CRL-1582) and Ramos cells (ATCC catalogue number CRL-1596) were grown in 1 L Spinner flasks (Integra Biosciences, #182101) in suspension in RPMI 1640 medium (Invitrogen, #21875-034) supplemented with 10% Fetal Bovine Serum (Invitrogen) at a density between 0.15×10^6 and 1.2×10^6 cells/mL. […] The supernatant was transferred again to a fresh 50 mL falcon tube, the protein concentration was determined by a Bradford assay (BioRad) and samples containing 50 mg of protein per aliquot were prepared. […]

JAK2 = JAK2 (Homo sapiens, UniProt O60674); experiment: Kinobeads assay, JAK2 (competition binding in mixed Molt4/Ramos cell lysate, dot blot detection); details: read-out: JAK2 Band (Kinobeads assay potency, IC50)
Experimental: as §1, §2

For `Cn1cc(Nc2ncc(F)c(NCc3cc(S(C)(=O)=O)ccc3F)n2)cn1`, which IC50 (TYK2) is on record?
The IC50 was 10 to 100 nM.

What about the IC50 (JAK2) of the same molecule?
The IC50 was 1000 to 10000 nM.
